Data on four compounds can be found in patent publication US9487511B2, “Cyclopropanamine compound and use thereof” (Takeda Pharmaceutical Company Limited, priority 2014, dated 2016).

Amino acid sequences for entries named in this document (tags omitted).
UniProt P21397, whole entry: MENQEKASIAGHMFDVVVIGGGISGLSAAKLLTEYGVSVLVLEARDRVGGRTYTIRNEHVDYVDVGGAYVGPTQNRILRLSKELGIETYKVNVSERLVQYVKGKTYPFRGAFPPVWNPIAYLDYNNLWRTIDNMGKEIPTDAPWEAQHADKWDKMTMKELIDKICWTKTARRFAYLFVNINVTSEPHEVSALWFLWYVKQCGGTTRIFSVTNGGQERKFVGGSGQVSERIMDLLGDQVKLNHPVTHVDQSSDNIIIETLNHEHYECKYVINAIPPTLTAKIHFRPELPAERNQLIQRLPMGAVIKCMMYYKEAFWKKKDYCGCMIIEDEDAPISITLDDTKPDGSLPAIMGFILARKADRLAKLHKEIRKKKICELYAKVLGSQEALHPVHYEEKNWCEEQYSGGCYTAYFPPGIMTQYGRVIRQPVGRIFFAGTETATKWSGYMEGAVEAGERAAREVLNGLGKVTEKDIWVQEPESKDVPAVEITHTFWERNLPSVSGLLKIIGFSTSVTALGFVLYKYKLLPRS
UniProt P27338, whole entry: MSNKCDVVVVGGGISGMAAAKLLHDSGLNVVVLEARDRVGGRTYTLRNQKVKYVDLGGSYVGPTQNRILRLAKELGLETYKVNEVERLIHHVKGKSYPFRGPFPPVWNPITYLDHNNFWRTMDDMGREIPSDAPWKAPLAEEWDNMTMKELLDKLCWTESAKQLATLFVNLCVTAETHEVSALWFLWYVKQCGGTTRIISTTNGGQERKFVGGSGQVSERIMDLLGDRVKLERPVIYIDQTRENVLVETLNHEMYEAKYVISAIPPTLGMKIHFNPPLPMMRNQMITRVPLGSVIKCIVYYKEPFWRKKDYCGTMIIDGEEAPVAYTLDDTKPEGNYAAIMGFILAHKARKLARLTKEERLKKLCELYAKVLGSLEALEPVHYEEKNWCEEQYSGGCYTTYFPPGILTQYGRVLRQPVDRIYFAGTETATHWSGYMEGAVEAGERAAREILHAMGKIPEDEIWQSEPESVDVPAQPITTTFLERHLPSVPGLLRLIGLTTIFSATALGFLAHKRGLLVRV

One data set addresses MAO-A enzyme (Homo sapiens (Human), UniProt P21397). The experiment in a line: Measurement of MAO-A inhibitory activity (MAO-Glo Assay). The class given is biochemical.
Another data set deals with MAO-B enzyme (Homo sapiens (Human), UniProt P27338). The data set can be described thus: Measurement of MAO-B inhibitory activity (MAO-Glo Assay). It counts as biochemical.
A further data set can be described thus: in vivo. To be noted: male, ICR, mouse, hippocampus/plasma, po, 10 mg/kg, Ratio (hippocampus/plasma), Mean, male ICR mice, 10 mg/kg oral, 1 h after administration.

The structures appear in SMILES notation. pIC50: −log10 of the molar value. Counter-ions that a name gives are not always drawn.

As to `Cc1sc(C(=O)NC2CCC(F)(F)CC2)cc1[C@@H]1C[C@H]1NC1CCOCC1` (relative stereo) [Example 21, N-(4,4-difluorocyclohexyl)-5-methyl-4-(trans-2-(tetrahydro-2H-pyran-4-ylamino)cyclopropyl)thiophene-2-carboxamide fumarate], at MAO-A enzyme, the pIC50 is less than 4.00.

On to `Cn1cc(NC(=O)c2cc([C@@H]3C[C@H]3NCC3CC3)cs2)cn1` (relative stereo) [Example 62, 4-(trans-2-((cyclopropylmethyl)amino)cyclopropyl)-N-(1-methyl-1H-pyrazol-4-yl)thiophene-2-carboxamide dihydrochloride], for which, on MAO-B enzyme, the pIC50 was less than 4.00. For the compound `O=C(NC1CCOCC1)c1cc([C@@H]2C[C@H]2NC2CCC2)cs1` (relative stereo) [Example 63, 4-(trans-2-(cyclobutylamino)cyclopropyl)-N-(tetrahydro-2H-pyran-4-yl)thiophene-2-carboxamide hydrochloride], the pIC50 at MAO-B enzyme and at MAO-A enzyme was less than 4.00 throughout. As to `O=C(NC1CCOCC1)c1csc([C@@H]2C[C@H]2NCC2CC2)c1` [Example 71, 5-((1R,2R)-2-((cyclopropylmethyl)amino)cyclopropyl)-N-(tetrahydro-2H-pyran-4-yl)thiophene-3-carboxamide hydrochloride], the Kp at 1 h in the data set “in vivo” was 0.358.
